Sequences of proteins named here, by UniProt entry; tags and fusion partners are left off. Residues count along the entry.
UniProt P16473, 21-764: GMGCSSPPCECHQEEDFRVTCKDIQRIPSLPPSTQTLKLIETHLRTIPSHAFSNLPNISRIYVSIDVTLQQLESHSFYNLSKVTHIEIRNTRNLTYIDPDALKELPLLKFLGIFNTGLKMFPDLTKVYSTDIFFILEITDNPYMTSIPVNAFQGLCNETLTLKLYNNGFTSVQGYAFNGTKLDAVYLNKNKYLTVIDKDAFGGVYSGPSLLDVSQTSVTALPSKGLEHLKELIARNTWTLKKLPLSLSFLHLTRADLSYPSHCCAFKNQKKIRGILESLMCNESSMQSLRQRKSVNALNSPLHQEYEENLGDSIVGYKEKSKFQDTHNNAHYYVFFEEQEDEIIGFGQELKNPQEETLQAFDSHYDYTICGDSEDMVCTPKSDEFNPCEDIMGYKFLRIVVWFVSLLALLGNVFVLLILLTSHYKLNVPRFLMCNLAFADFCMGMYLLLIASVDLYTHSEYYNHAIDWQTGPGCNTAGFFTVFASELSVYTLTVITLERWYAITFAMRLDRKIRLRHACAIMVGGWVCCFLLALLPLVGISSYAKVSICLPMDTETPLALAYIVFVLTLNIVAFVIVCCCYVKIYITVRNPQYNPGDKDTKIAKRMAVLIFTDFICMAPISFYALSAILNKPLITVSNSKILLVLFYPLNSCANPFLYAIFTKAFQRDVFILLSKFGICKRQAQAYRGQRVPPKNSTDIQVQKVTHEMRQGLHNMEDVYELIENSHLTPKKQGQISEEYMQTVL

In US7691848B2, “Pyrrolobenzodiazepine arylcarboxamides and derivatives thereof as follicle-stimulating hormone receptor antagonists” (Wyeth, priority 2005, dated 2010):

What was measured:
Format in all cases: cell-based
hFSH-R = target: T1, hFSH-R (Homo sapiens, UniProt P23945); experiment: cAMP accumulation (RIA) in CHO-3D2 cells (hFSH-R), hFSH-induced; conditions: agonist mode, four-parameter logistic equation
T1 construct: expressed in transfected cells; host or cells: CHO-3D2 cells (CHO-K1 parental line)
T1 sequence (P23945 18-695): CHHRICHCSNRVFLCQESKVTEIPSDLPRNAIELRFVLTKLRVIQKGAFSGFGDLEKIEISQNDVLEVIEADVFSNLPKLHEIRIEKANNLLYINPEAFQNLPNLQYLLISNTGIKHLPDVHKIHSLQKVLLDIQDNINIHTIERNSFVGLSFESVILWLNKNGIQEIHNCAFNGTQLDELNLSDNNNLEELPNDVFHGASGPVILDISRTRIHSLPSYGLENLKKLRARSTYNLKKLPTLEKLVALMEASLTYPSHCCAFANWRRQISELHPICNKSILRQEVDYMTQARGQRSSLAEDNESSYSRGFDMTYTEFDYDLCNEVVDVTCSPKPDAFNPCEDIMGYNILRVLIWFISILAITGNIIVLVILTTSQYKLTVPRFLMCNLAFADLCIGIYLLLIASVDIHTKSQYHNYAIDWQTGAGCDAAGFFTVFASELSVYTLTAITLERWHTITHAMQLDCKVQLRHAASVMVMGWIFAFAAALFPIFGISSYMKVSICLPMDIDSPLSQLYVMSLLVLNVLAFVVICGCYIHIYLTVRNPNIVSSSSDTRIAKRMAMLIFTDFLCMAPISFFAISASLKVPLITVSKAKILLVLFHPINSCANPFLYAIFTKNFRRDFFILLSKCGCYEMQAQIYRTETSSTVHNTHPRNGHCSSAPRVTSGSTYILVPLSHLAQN
Description: In Vitro Bio-Assay, Selectivity and Dependency of Agonists and Antagonists to the FSH Receptor
This assay was used to verify in vitro potency, efficacy, selectivity and receptor dependency of hits found to inhibit an FSH-R-CRE-luciferase driven reporter.
Compound Vehicle: Stock compounds were solubilized in 100% DMSO (Sigma-Aldrich Chemical Co., St. Louis, Mo.) at a concentration of 30 mM. The compounds subsequently were diluted in sterile assay medium consisting of Opti-MEM® I (Invitrogen/Life Technologies, Carlsbad, Calif.) with 0.1% (w/v) BSA (Sigma-Aldrich) prior to use in the bio-assay. The final concentration of DMSO in the assay was 0.1%.
The day prior to the experiment, CHO-3D2 cells (hFSH-R)(1) were plated into 96-well tissue culture plates (Falcon®, BD Biosciences, San Jose, Calif.) at a density of 30,000 cells/well in DMEM/F12 medium (Invitrogen/Life Technologies) supplemented with 5% Fetal Clone II (Hyclone), 2 mM L-glutamine (Invitrogen/Life Technologies) and penicillin/streptomycin (100 U/ml, Invitrogen/Life Technologies). Plated cells are then incubated at 37° C. in a humidified 5% CO2/95% air atmosphere.
Assay: On the day of the assay, cells were washed three times with 100 μl/well of assay medium consisting of Opti-MEM® I (Invitrogen/Life Technologies) with 0.1% (w/v) BSA (Sigma-Aldrich). Medium was removed and 100 μl of assay medium was added to each well. […] Reactions were terminated by the addition of 50 μl of 0.2N hydrochloric acid to each well and cAMP-accumulation was measured by radioimmunoassay (RIA) using a commercially available kit (Amersham Biosciences, Piscataway, N.J.).
All test compounds were evaluated in a dose-response paradigm ranging from 0.01 to 30 μM. Controls and test compounds were evaluated in quadruplicate in a 96-well format. […] The ability of the compounds to inhibit the cAMP-accumulation induced by hFSH was evaluated by RIA.
In every assay, the EC20 concentration was calculated and only those experiments in which the EC20 concentrations were equal to 1.85±0.4 ng/mL were accepted as valid. […]

human FSH receptor = target: T2, human FSH receptor (Homo sapiens, UniProt P23945); experiment: Follicle-Stimulating Hormone Receptor-Dependent Cre-Luciferase Reporter Gene Assay (CHO FSH-R 6CRE-Luc cells); conditions: positive control
T2 construct: host or cells: CHO-K1 (CHO FSH-R 6CRE-Luc, 1D7 cells)
T2 sequence (P23945 18-695): T1 sequence (P23945 18-695)
Description: Follicle-Stimulating Hormone Receptor-Dependent Cre-Luciferase Reporter Gene Assay for the Identification of Follicle-Stimulating Hormone (FSH) Antagonists
A Chinese hamster ovarian cell line that stably produces the human FSH receptor and a luciferase reporter gene regulated by cAMP response elements was used to identify and determine the relative potencies of human FSH receptor antagonists. See for example, Kelton, C. A., et al. Mol. Cell. Endocrinol. 89:141-151 (1992), Tilly, J. L., et al. Endocrinology 131:799-806(1992), and George, S. E., et al. J. Biomol. Screening 2:235-240 (1997).
Compound Vehicle: Stock compounds were solubilized in an appropriate vehicle, e.g., phosphate buffered saline (PBS) or dimethyl sulfoxide (DMSO), at 30 mM. The compounds were subsequently diluted in DMSO to working dilutions of 1 and 20 or 30 mM for 2-dose testing format and 1 μM-10 mM for dose-response format. The DMSO dilutions were diluted 500-fold in sterile growth medium [D-MEM/F-12 (GIBCO/BRL; Grand Island, NY) containing 15 mM HEPES, 2 mM 1-glutamine, pyridoxine hydrochloride, phenol red and 5% FetalClone® II (HyClone Laboratories, Inc; Logan, Utah), 0.2% DMSO, 100 units penicillin G/ml, and 100 μg streptomycin sulfate/ml (GIBCO/BRL)]. The concentration of the vehicle in each of the compound dilutions was the same. […]

hTSH-R = target: T3, hTSH-R (Homo sapiens, UniProt P16473); experiment: Selectivity: cAMP accumulation in CHO-25 (hTSH-R) cells, hTSH-induced; conditions: CHO-25 cells
T3 construct: expressed in transfected cells; host or cells: CHO-25 cells
Description: cAMP accumulation assays using CHO-25 (hTSH-R) cells were performed as described above for the CHO-3D2 cells with the following exceptions: CHO-25 cells were plated at a density of 50,000 cells/well (2). All test compounds were evaluated in a dose-response paradigm ranging from 0.01 to 30 μM. Controls and test compounds were evaluated in quadruplicate. Cells were treated with vehicle, hTSH at EC20 (5 nM; hTSH >98% pure, Cortex Biochem, Inc.), or the compounds in the presence or absence of the hTSH at its EC20 concentration. The ability of the compounds to inhibit cAMP-accumulation induced by hTSH was evaluated by RIA.
Along with the test compounds, hTSH was also run as a positive control in the agonist mode using concentrations ranging from 0.01 μM-1000 μM.
cAMP accumulation is expressed as fmol/ml. cAMP accumulation in the agonist mode, or the ability of the compound to inhibit hFSH-, hTSH-, or forskolin-induced cAMP-accumulation in the antagonist mode, was compared to the appropriate negative and positive controls. Data were analyzed by one-way analysis of variance and significant differences between treatments and control determined by Least Significant Difference test.

Row | apparent EC20, cAMP accumulation (hFSH-R) | apparent EC50, cAMP accumulation (hFSH-R) | apparent EC80, cAMP accumulation (hFSH-R) | EC50 of phFSH (human FSH receptor) | EC100 of phFSH (human FSH receptor) | EC20 of hTSH, cAMP accumulation (hTSH-R) | Substance
1 | 1.85 ng/mL | 6.03 ng/mL | 22.55 ng/mL | 0.4 ng/mL | 1000 ng/mL |  | hFSH: Purified human FSH purchased from Cortex Biochem, Inc.; positive control
2 |  |  |  |  |  | 5 nM | hTSH: hTSH >98% pure, Cortex Biochem, Inc.; positive control in selectivity assay
